The structures appear in SMILES notation.

By UniProt entry, the sequences of proteins in these tests, tags left out. Where a name states a change or a piece, a line headed by the entry shows the natural chain unless it says otherwise.
UniProt P05622: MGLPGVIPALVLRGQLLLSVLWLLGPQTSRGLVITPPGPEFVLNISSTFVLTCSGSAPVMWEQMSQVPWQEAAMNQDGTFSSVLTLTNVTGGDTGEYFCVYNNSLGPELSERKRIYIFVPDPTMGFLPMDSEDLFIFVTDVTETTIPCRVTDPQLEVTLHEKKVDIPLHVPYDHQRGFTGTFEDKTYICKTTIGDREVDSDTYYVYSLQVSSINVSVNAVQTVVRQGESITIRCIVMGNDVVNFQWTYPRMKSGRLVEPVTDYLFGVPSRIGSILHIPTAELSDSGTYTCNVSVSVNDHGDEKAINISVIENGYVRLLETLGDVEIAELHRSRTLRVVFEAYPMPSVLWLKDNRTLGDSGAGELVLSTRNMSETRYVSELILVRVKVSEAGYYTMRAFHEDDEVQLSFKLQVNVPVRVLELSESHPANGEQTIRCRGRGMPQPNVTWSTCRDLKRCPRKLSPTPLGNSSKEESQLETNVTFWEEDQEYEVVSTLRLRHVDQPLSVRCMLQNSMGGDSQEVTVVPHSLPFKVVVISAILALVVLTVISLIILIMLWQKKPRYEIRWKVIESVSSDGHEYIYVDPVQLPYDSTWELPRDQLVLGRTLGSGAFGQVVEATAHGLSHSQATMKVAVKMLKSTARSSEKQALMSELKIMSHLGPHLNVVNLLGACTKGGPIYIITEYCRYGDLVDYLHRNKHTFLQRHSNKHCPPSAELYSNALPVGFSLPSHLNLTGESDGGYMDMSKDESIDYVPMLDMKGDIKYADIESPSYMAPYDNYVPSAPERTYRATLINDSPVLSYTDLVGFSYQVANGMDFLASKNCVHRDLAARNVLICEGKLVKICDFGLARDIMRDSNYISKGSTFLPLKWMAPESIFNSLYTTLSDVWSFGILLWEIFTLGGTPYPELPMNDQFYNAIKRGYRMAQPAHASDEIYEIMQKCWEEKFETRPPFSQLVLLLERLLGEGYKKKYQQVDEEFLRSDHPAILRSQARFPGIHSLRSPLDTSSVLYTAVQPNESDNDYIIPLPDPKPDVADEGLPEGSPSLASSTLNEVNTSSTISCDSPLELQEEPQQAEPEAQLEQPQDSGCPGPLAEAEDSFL
UniProt P11362, whole entry: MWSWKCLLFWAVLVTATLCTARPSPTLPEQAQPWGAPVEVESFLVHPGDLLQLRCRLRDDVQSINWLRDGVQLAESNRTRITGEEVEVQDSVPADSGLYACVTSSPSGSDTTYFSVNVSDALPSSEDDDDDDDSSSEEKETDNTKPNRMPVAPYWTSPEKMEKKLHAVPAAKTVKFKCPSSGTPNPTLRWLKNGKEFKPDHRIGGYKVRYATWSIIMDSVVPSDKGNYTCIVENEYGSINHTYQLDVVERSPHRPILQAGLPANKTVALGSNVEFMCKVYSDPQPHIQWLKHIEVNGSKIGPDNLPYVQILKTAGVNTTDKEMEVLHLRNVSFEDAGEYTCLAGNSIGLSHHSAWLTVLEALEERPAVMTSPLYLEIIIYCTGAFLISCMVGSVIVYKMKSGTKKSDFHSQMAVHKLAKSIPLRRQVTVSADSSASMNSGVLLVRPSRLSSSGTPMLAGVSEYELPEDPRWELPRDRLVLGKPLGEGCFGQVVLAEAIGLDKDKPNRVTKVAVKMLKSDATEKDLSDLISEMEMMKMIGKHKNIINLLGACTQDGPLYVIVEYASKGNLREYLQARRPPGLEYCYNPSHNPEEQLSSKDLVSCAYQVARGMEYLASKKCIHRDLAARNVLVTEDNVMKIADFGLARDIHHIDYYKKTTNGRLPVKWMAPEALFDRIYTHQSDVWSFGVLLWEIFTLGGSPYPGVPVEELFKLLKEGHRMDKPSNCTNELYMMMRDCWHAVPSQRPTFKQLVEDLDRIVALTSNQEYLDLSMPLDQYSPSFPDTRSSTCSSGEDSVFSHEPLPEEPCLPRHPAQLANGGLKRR

Test [1] has as its target Platelet-derived growth factor receptor beta (Mus musculus, UniProt P05622).
Test [2] deals with Fibroblast growth factor receptor 1 (Homo sapiens, UniProt P11362).

For `COc1ccc(NC(=O)Nc2nc3nc(NCCCN4CCN(C)CC4)ncc3cc2-c2c(Cl)cccc2Cl)cc1`, the values for the half-inhibitory concentration (IC50) in test [1] and in test [2] were 680 nM and 74 nM, respectively.

With `CN1CCN(CCCNc2ncc3cc(-c4c(Cl)cccc4Cl)c(NC(=O)NC4CCCCC4)nc3n2)CC1`, in test [1], the half-maximal inhibitory concentration (IC50) – broadly, the concentration that inhibits the measured activity by half – came out at 370 nM.

In test [1], `CN1CCN(CCCNc2ncc3cc(-c4c(Cl)cccc4Cl)c(NC(=O)NCc4ccccc4)nc3n2)CC1` came in with a half-maximal inhibitory concentration (IC50) of 2500 nM.
